# In PubChem BioAssay AID504339 (National Center for Advancing Translational Sciences (NCATS), 2011):
# The chains behind the UniProt entries cited, without tags or fusion partners.
# UniProt O75164, whole entry: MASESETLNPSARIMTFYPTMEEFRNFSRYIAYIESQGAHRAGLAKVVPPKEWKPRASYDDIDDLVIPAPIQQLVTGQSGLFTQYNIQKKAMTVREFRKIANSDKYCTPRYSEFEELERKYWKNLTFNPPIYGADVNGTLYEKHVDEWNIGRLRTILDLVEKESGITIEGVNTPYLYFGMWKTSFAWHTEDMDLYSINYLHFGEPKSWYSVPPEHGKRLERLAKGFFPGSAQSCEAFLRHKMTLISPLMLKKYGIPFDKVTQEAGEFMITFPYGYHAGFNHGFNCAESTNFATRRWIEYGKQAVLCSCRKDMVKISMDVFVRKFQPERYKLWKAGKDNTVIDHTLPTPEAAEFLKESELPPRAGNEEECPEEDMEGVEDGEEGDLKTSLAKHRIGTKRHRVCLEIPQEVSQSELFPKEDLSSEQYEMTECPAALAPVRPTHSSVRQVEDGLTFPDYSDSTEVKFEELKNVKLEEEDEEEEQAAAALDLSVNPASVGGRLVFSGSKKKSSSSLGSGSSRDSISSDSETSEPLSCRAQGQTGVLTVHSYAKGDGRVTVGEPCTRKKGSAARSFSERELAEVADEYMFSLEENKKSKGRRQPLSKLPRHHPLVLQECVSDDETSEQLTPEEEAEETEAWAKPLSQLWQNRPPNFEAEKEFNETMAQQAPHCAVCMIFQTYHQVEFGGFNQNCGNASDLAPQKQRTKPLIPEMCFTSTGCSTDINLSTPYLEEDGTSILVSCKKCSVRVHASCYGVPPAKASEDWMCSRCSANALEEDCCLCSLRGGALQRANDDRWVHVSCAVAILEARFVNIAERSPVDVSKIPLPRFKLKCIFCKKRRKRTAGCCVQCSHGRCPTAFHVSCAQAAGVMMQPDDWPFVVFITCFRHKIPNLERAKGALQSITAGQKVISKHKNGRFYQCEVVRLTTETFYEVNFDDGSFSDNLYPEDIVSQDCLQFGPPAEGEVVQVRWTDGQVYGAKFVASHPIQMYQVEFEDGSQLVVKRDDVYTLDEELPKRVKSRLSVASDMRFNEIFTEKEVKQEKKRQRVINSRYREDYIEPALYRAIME
# The entries are a selection whose mix differs from that of the whole data set. Inconclusive results are not listed. Where a call stands in place of a potency, no number is given. Activity calls are given as the source filed them. Calls follow the shape of the dose curve; as a rule, active = well fitted inhibition curve with a large enough effect; inconclusive = small, poorly fitted or top-dose-only effect; inactive = no such curve, though single readings can be large or run the other way.
# Molecular target: Lysine-specific demethylase 4A (Homo sapiens) (UniProt O75164)
# Assay: qHTS Assay for Inhibitors of JMJD2A-Tudor Domain; also: nearly all actives have a fitted effect of over 50% in size
# Conditions: AlphaScreen JMJD2A-Tudor / H3K4me3 peptide binding; series mostly up to 114 µM
# Potency is read from the fitted curve at half-maximal effect.
row,SMILES,Potency
1,CCC(=O)N(c1ccccc1)C1(COC)CCN(CCc2cccs2)CC1,active: 50.1 µM
2,CCC(=O)N(c1ccccc1)C1(COC)CCN(CCn2nnn(CC)c2=O)CC1,inactive
